# From publication PMC6389962 (Nature Communications, 2019)
# Where two headings read alike, the source gives them in different places.
# Columns and labels:
# mouse GLP-1 receptor [1] = biological target: T1, mouse GLP-1 receptor (Mus musculus, UniProt O35659); assay: cell-based; conditions: for Emax: 14: experiment 1
# T1 sequence (O35659 22-463): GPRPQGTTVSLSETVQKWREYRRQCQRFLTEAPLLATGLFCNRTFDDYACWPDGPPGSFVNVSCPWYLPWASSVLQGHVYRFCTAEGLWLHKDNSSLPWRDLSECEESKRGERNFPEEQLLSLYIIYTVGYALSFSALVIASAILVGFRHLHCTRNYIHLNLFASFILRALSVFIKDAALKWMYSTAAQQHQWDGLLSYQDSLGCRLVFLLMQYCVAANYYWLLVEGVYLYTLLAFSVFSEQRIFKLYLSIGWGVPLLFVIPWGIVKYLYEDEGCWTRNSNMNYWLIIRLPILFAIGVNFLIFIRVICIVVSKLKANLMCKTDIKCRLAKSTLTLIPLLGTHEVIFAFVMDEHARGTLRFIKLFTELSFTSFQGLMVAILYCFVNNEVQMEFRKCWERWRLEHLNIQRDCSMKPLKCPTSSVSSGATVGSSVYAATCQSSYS
# mouse GLP-1 receptor [2] = biological target: T1, mouse GLP-1 receptor
# [3] = read-out: Top (best-fit value), variable slope four-parameter fit, unconstrained
EC50 (mouse GLP-1 receptor [1]),Emax (mouse GLP-1 receptor [1]; [3]),LogEC50 (best-fit value) (mouse GLP-1 receptor [2]),"Emax (mouse GLP-1 receptor [1]; read-out: Top (best-fit value), fit with BOTTOM = 0%)","Potency (%), percentage of potency compare to GLP-1-G^2 (mouse GLP-1 receptor [2]; cAMP production, from EC50)",Compound
2.8 nM,104%,-8.547,,,"CC[C@H](C)[C@H](NC(=O)[C@H](Cc1ccccc1)NC(=O)[C@H](CCC(=O)O)NC(=O)[C@H](CCCCN)NC(=O)[C@H](C)NC(=O)[C@H](C)NC(=O)[C@H](CCC(N)=O)NC(=O)CNC(=O)[C@H](CCC(=O)O)NC(=O)[C@H](CC(C)C)NC(=O)[C@H](Cc1ccc(O)cc1)NC(=O)[C@H](CO)NC(=O)[C@H](CO)NC(=O)[C@@H](NC(=O)[C@H](CC(=O)O)NC(=O)[C@H](CO)NC(=O)[C@@H](NC(=O)[C@H](Cc1ccccc1)NC(=O)[C@@H](NC(=O)CNC(=O)[C@H](CCC(=O)O)NC(=O)CNC(=O)[C@@H](N)Cc1c[nH]cn1)[C@@H](C)O)[C@@H](C)O)C(C)C)C(=O)N[C@@H](C)C(=O)N[C@@H](Cc1c[nH]c2ccccc12)C(=O)N[C@@H](CC(C)C)C(=O)N[C@@H](C)CNC(=O)N[C@@H](C)CNC(=O)N[C@@H](C)CNC(=O)NCC(N)=O [compound 21, GG2[A^uA^uA^u]^27-30]"
26 nM,81.6%,-7.584,,,"CC[C@H](C)[C@H](NC(=O)[C@H](Cc1ccccc1)NC(=O)[C@H](CCC(=O)O)NC(=O)[C@H](CCCCN)NC(=O)[C@H](C)NC(=O)[C@H](C)NC(=O)[C@H](CCC(N)=O)NC(=O)CNC(=O)[C@H](CCC(=O)O)NC(=O)[C@H](CC(C)C)NC(=O)[C@H](Cc1ccc(O)cc1)NC(=O)[C@H](CO)NC(=O)[C@H](CO)NC(=O)[C@@H](NC(=O)[C@H](CC(=O)O)NC(=O)[C@H](CO)NC(=O)[C@@H](NC(=O)[C@H](Cc1ccccc1)NC(=O)[C@@H](NC(=O)CNC(=O)[C@H](CCC(=O)O)NC(=O)CNC(=O)[C@@H](N)Cc1c[nH]cn1)[C@@H](C)O)[C@@H](C)O)C(C)C)C(=O)N[C@@H](C)C(=O)N[C@@H](Cc1c[nH]c2ccccc12)C(=O)N[C@@H](C)CNC(=O)N[C@@H](C)CNC(=O)N[C@@H](C)CNC(=O)N[C@@H](CCCNC(=N)N)C(=O)NCC(N)=O [compound 20, GG2[A^uA^uA^u]^26-29]"
368 nM,,,160%,0.07%,"CC[C@H](C)[C@H](NC(=O)[C@H](Cc1ccccc1)NC(=O)[C@H](CCC(=O)O)NC(=O)[C@H](CCCCN)NC(=O)[C@H](C)NC(=O)[C@H](C)NC(=O)[C@H](CCC(N)=O)NC(=O)CNC(=O)[C@H](CCC(=O)O)NC(=O)[C@H](CC(C)C)NC(=O)[C@H](Cc1ccc(O)cc1)NC(=O)[C@H](CO)NC(=O)[C@H](CO)NC(=O)[C@@H](NC(=O)[C@H](CC(=O)O)NC(=O)[C@H](CO)NC(=O)[C@@H](NC(=O)[C@H](Cc1ccccc1)NC(=O)[C@@H](NC(=O)CNC(=O)[C@H](CCC(=O)O)NC(=O)CNC(=O)[C@@H](N)Cc1c[nH]cn1)[C@@H](C)O)[C@@H](C)O)C(C)C)C(=O)N[C@@H](C)C(=O)N[C@@H](C)CNC(=O)N[C@@H](C)CNC(=O)N[C@@H](C)CNC(=O)NCC(=O)N[C@@H](CCCNC(=N)N)C(=O)NCC(N)=O [compound 19, GG2[A^uA^uA^u]^25-28]"
